Target: human β-secretase (sBACE-Fc, soluble part AA 1-AA 460) (Homo sapiens (Human), UniProt P56817)
Assay: TR-FRET assay
Format: biochemical
Conditions: TruPoint BACE1 substrate 100 nM, pH 4.5, 15 min at r.t.
Description: The β-secretase enzyme used in the TR-FRET is prepared as follows:
The cDNA for the soluble part of the human 13-Secretase (AA 1-AA 460) was cloned using the ASP2-Fc10-1-IRES-GFP-neoK mammalian expression vector. The gene was fused to the Fc domain of IgG1 (affinity tag) and stably cloned into HEK 293 cells.
The enzyme (truncated form) was diluted to 6 μg/mL (stock 1.3 mg/mL) and the TruPoint BACE1 Substrate to 200 nM (stock 120 μM) in reaction buffer (NaAcetate, chaps, triton x-100, EDTA pH4.5). The robotic systems Biomek FX and Velocity 11 were used for all liquid handling and the enzyme and substrate solutions were kept on ice until they were placed in the robotic system. Enzyme (9 μL) was added to the plate then 1 μL of compound in dimethylsulphoxide was added, mixed and pre-incubated for 10 minutes. Substrate (10 μL) was then added, mixed and the reaction proceeded for 15 minutes at r.t. The reaction was stopped with the addition of Stop solution (7 μL, NaAcetate, pH 9). The fluorescence of the product was measured on a Victor II plate reader with an excitation wavelength of 340 nm and an emission wavelength of 615 nm. The assay was performed in a Costar 384 well round bottom, low volume, non-binding surface plate (Corning #3676). The final concentration of the enzyme was 2.7 μg/mL; the final concentration of substrate was 100 nM (Km of ˜250 nM). […]

Protein sequences, listed by entry. Tags and fused reporters are not part of them. Residues count along the entry.
UniProt P56817, 22-460: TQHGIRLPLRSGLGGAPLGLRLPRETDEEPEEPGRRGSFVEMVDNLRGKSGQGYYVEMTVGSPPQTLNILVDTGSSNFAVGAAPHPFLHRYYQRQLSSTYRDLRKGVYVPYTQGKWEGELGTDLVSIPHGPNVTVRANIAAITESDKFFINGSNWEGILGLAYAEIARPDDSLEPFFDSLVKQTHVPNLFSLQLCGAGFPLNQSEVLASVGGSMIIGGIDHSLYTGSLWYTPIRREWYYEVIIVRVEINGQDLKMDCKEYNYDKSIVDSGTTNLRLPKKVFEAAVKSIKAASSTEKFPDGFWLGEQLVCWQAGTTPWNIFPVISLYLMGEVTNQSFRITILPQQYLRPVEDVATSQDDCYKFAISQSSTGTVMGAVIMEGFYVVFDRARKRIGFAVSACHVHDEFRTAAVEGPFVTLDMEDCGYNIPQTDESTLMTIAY

[2H]C([2H])([2H])O[C@H]1CC[C@]2(CC1)Cc1ccc(OCCCF)cc1C21C=C(F)C(N)=N1 (single isomer, unassigned) [Example 10, 4″-fluoro-6′-(3-fluoropropoxy)-4-[(2H3)methyloxy]-3′H-dispiro[cyclohexane-1,2′-indene-1′,2″-pyrrol]-5″-amine]
IC50: 37 nM

[2H]C([2H])([2H])O[C@H]1CC[C@@]2(CC1)Cc1ccc(OCCCF)cc1C21C=C(F)C(N)=N1 (single isomer, unassigned) [Example 11, 4″-fluoro-6′-(3-fluoropropoxy)-4-[(2H3)methyloxy]-3′H-dispiro[cyclohexane-1,2′-indene-1′,2″-pyrrol]-5″-amine]
IC50: 1220 nM
